## Antibody variant affinities, Ab-91 heavy chain, assay 2

All variants were tested on one target, the spike HR2 peptide PDVDLGDISGINAS (SARS-CoV-2).

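Library AAYL51 holds single substitutions and randomly drawn double and triple substitutions in the CDRs. The assay is AlphaSeq: two haploid yeast populations carry antibody and antigen on their surface. Mating (16 h, 30 °C) was followed by selection of diploids and sequencing of their barcodes. Each replicate has its own calibration line, from reference interactions of the BCL2 family. The assay was run in three technical replicates.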

Each scFv is VL, three GGGGS repeats, VH, as in the parent Ab-91, and differs from it in the CDRs of the heavy chain only.
VL: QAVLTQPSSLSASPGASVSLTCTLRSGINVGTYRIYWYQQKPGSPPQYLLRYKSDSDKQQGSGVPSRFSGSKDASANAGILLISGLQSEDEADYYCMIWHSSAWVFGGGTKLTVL
VH: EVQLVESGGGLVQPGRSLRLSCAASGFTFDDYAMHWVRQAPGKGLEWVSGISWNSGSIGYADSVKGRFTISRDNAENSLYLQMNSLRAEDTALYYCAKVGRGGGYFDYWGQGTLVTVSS

Substitutions are numbered in sequence along the VH above, starting at 1 (not Kabat).
Affinities are written as log10 Kd with Kd in nM; a lower number is a better binder.
The mean shown is taken over the replicates in which the pair was detected.
An entry "ND" has no value in the source: the pair was not observed among the diploids in that replicate. This suggests poor binding but is not conclusive.
Parent in this assay: reference entry 1.86, copy in this library 0.88.
Background: pairings of library AAYL51 with three empty control strains gave a value in 21% of cases (median 4.54, 5th percentile 3.26). Values in that range, when seen in few replicates, are hard to tell from nonspecific mating. The control count says in how many pairings with the empty strains this scFv gave a signal, with their mean in brackets.

changes,log10 Kd (nM) by replicate,"log10 Kd (nM), mean",control signals
Y32R H35Q G103Q,ND ND ND,ND,0 of 9
S55I V64E Y105W,ND ND ND,ND,1 of 9 (5.52)
F27G S63L G104T,3.38 3.85 3.95,3.73,2 of 9 (4.32)
N54A G103V G104K,3.20 4.28 4.07,3.85,5 of 9 (4.58)
A33N G50F G100T,ND ND ND,ND,0 of 9
M34S S57Q D62C,ND ND ND,ND,2 of 9 (4.11)
N54K S55D G100V,ND ND ND,ND,0 of 9
F29A G100P G104T,4.25 ND ND,4.25,5 of 9 (4.37)
I51A G103P F106Y,ND ND ND,ND,0 of 9
I51F S57I R101S,6.33 ND 5.38,5.85,4 of 9 (4.79)
S52E K65V G100V,ND ND ND,ND,1 of 9 (2.81)
G26M I51A G59N,4.83 5.14 3.82,4.59,5 of 9 (4.84)
A33D Y105C,ND ND ND,ND,0 of 9
W53I G59K D107V,ND ND ND,ND,0 of 9
G26V G56Y F106K,ND ND ND,ND,1 of 9 (4.26)
F29V I51P Y108A,ND ND ND,ND,0 of 9
S57G R101P F106S,ND ND ND,ND,1 of 9 (1.82)
Y60C R101I Y105K,ND ND ND,ND,0 of 9
S55R G59C V64M,ND 3.68 ND,3.68,0 of 9
F29A Y108N,5.31 4.70 ND,5.00,2 of 9 (5.57)
Y32L I51A G59K,ND ND ND,ND,1 of 9 (5.49)
G26R Y60S G100E,ND ND ND,ND,0 of 9
M34T,ND ND ND,ND,0 of 9
H35A G104W,3.69 4.47 ND,4.08,0 of 9
K65F V99E,ND ND 4.86,4.86,2 of 9 (3.88)
Y32G S52K V99Y,ND 5.73 ND,5.73,2 of 9 (5.09)
K65F,1.18 1.33 0.86,1.13,3 of 9 (4.21)
Y60F F106E D107A,5.14 ND ND,5.14,4 of 9 (4.67)
F29Q I51P,3.84 5.08 ND,4.46,4 of 9 (3.95)
M34H N54M G59T,ND ND ND,ND,1 of 9 (3.67)
I58E Y60G V64N,ND 4.65 ND,4.65,4 of 9 (4.77)
D30W Y32K D107P,ND ND ND,ND,0 of 9
D62K V64R G102T,ND ND ND,ND,0 of 9
W53T D62V Y108W,3.01 2.67 2.65,2.78,4 of 9 (5.54)
T28F S52K G104E,ND ND ND,ND,0 of 9
S52Q I58E V64N,4.79 5.13 4.98,4.97,5 of 9 (4.54)
Y32L G56L D107M,ND 4.36 ND,4.36,0 of 9
Y32F G59Q R101N,ND ND ND,ND,0 of 9

Top 3 of the variants detected in all replicates, tightest first:

changes	log10 Kd (nM) by replicate	log10 Kd (nM), mean	control signals
K65F	1.18 1.33 0.86	1.13	3 of 9 (4.21)
W53T D62V Y108W	3.01 2.67 2.65	2.78	4 of 9 (5.54)
F27G S63L G104T	3.38 3.85 3.95	3.73	2 of 9 (4.32)

Values reported by Engelhart et al. 2022, doi:10.1038/s41597-022-01779-4 (FLAb copy).